This is an account of results in ChEMBL document CHEMBL5223102, “CDK9 inhibitors in cancer research” (RSC Med Chem, 2022).

By UniProt entry, the sequences of proteins in these tests, tags left out.
UniProt P50750, whole entry: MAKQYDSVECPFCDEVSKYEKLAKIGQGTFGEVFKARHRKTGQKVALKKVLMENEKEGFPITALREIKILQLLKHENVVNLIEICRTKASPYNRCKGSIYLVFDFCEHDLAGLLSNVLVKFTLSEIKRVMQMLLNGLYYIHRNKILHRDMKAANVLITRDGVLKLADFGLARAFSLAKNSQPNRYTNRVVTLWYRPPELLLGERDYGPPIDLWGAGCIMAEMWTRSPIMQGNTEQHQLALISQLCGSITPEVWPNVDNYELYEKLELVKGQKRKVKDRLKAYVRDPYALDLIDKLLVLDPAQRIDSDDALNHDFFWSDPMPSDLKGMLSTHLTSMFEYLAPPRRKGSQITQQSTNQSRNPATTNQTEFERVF

Experiment [1] addresses T1, Cyclin-dependent kinase 9 (Homo sapiens, UniProt P50750).
For experiment [2], the target named is T1, Cyclin-dependent kinase 9. The experiment in a line: Inhibition of human CDK9 in human MV4-11 cells assessed as decrease in RNAP2 phosphorylation at Ser2 by western blot analysis. It is filed as cell-based.

For the compound `COc1cc(F)ccc1-c1ccnc(NC(=O)[C@H]2CCC[C@@H](NC(C)=O)C2)c1`, the IC50 (as a rule, the concentration that inhibits the measured activity by half) in experiment [1] was < 5 nM; in experiment [2] it was 96 nM.
